Cyclic peptide permeability, from CycPeptMPDB

Source: CycPeptMPDB (Li et al. 2023), which took these values from Townsend et al. 2020, doi:10.26434/chemrxiv.13335941.v1.

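Lipid, pH, incubation time, direction and concentration are not recorded in the data file. Other peptides of the study may be missing here. Peptides that the database sets to -10, its floor, are left out.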

PAMPA measures passive passage through an artificial lipid membrane. Permeability is given as log10 of P in cm/s; higher (less negative) is more permeable.

For CC(C)C[C@@H]1NC(=O)[C@@H](C)NC(=O)[C@@H]2CCCN2C(=O)[C@H](Cc2ccccc2)NC(=O)[C@@H](CC(C)C)N(C)C(=O)[C@@H]2CCCN2C(=O)[C@@H](CC(C)C)N(C)C1=O the data give PAMPA -5.68 (log10 cm/s). The entry for CC(C)C[C@@H]1NC(=O)[C@@H](C)NC(=O)[C@H](Cc2ccccc2)NC(=O)CN(Cc2ccccc2)C(=O)[C@H]2CCCN2C(=O)CN(Cc2ccccc2)C1=O lists PAMPA -5.74 (log10 cm/s). The entry for CC(C)C[C@@H]1C(=O)N(Cc2ccccc2)CC(=O)N2CCC[C@H]2C(=O)N[C@H](CC(C)C)C(=O)N[C@@H](Cc2ccccc2)C(=O)N2CCC[C@H]2C(=O)N[C@@H](Cc2ccccc2)CC(=O)N1C lists PAMPA -6.18 (log10 cm/s). CC(C)C[C@@H]1NC(=O)[C@H]2CCCN2C(=O)[C@@H](CC(C)C)NC(=O)[C@@H](CC(C)C)NC(=O)C[C@H](Cc2ccccc2)NC(=O)[C@H](Cc2ccccc2)NC1=O has PAMPA -6.52 (log10 cm/s). CC(C)C[C@@H]1C(=O)N[C@@H](Cc2ccccc2)C(=O)N[C@H](C)C(=O)N[C@H](CC(C)C)C(=O)N(Cc2ccccc2)CC(=O)N2CCC[C@@H]2C(=O)N1C has PAMPA -6.09 (log10 cm/s).

For CC(C)C[C@@H]1NC(=O)[C@@H](C)NC(=O)[C@@H]2CCCN2C(=O)[C@H](Cc2ccccc2)NC(=O)[C@H](CC(C)C)NC(=O)[C@@H]2CCCN2C(=O)[C@H](CC(C)C)NC1=O the data give PAMPA -7.03 (log10 cm/s). The entry for CC(C)C[C@@H]1NC(=O)[C@H]2CCCN2C(=O)[C@H](CC(C)C)NC(=O)[C@@H](CC(C)C)NC(=O)[C@H](C)NC(=O)[C@H](Cc2ccccc2)NC1=O lists PAMPA -5.24 (log10 cm/s). For CCCN1CC(=O)N[C@H](CC(C)C)C(=O)N[C@@H](CC(C)C)C(=O)N2CCC[C@H]2C(=O)N[C@@H](CC(C)C)C(=O)N[C@@H](Cc2ccccc2)C(=O)N2CCC[C@@H]2C1=O the data give PAMPA -6.05 (log10 cm/s). CC(C)C[C@@H]1C(=O)N(C)[C@H](CC(C)C)C(=O)N2CCC[C@@H]2C(=O)N(C)[C@H](CC(C)C)C(=O)N[C@@H](Cc2ccccc2)C(=O)N2CCC[C@@H]2C(=O)N[C@@H](C)C(=O)N1C is reported with PAMPA -6.07 (log10 cm/s). CC(C)C[C@@H]1C(=O)N[C@@H](Cc2ccccc2)C(=O)N[C@H](C)C(=O)N(C)[C@@H](CC(C)C)C(=O)N[C@@H](Cc2ccccc2)CC(=O)N2CCC[C@H]2C(=O)N1C has PAMPA -5.58 (log10 cm/s).

CC(C)C[C@@H]1NC(=O)[C@H](C)N(C)C(=O)[C@H]2CCCN2C(=O)[C@H](Cc2ccccc2)NC(=O)[C@H](CC(C)C)N(C)C(=O)[C@H]2CCCN2C(=O)[C@H](CC(C)C)NC1=O is reported with PAMPA -5.59 (log10 cm/s). CC(C)C[C@@H]1NC(=O)[C@H]2CCCN2C(=O)C[C@H](Cc2ccccc2)NC(=O)[C@@H](CC(C)C)NC(=O)C[C@H](Cc2ccccc2)NC(=O)[C@H](Cc2ccccc2)NC1=O is reported with PAMPA -5.01 (log10 cm/s). CCCN1CC(=O)N(C)[C@H](CC(C)C)C(=O)N[C@@H](CC(C)C)C(=O)N2CCC[C@@H]2C(=O)N(C)[C@@H](CC(C)C)C(=O)N[C@@H](Cc2ccccc2)C(=O)N2CCC[C@H]2C1=O has PAMPA -4.97 (log10 cm/s). For CC(C)C[C@@H]1NC(=O)[C@H](C)NC(=O)[C@H](Cc2ccccc2)NC(=O)[C@H](CC(C)C)N(C)C(=O)[C@H]2CCCN2C(=O)C[C@H](Cc2ccccc2)NC1=O the data give PAMPA -6.00 (log10 cm/s). Listed for CC(C)C[C@@H]1NC(=O)C[C@H](Cc2ccccc2)NC(=O)[C@H](Cc2ccccc2)NC(=O)[C@@H](CC(C)C)NC(=O)[C@H]2CCCN2C(=O)C[C@H](Cc2ccccc2)NC1=O: PAMPA -4.97 (log10 cm/s).

Listed for CC(C)C[C@@H]1C(=O)N2CCC[C@H]2C(=O)N(C)[C@H](CC(C)C)C(=O)N[C@@H](Cc2ccccc2)C(=O)N2CCC[C@@H]2C(=O)N[C@H](C)C(=O)N(C)[C@@H](CC(C)C)C(=O)N1C: PAMPA -5.14 (log10 cm/s). CC(C)C[C@H]1NC(=O)[C@H](C)NC(=O)[C@@H]2CCCN2C(=O)[C@H](Cc2ccccc2)NC(=O)[C@@H](CC(C)C)NC(=O)[C@@H]2CCCN2C(=O)[C@@H](CC(C)C)NC1=O has PAMPA -7.08 (log10 cm/s).

The 2 lowest values of PAMPA among the entries above:

CC(C)C[C@H]1NC(=O)[C@H](C)NC(=O)[C@@H]2CCCN2C(=O)[C@H](Cc2ccccc2)NC(=O)[C@@H](CC(C)C)NC(=O)[C@@H]2CCCN2C(=O)[C@@H](CC(C)C)NC1=O has PAMPA -7.08 (log10 cm/s).
CC(C)C[C@@H]1NC(=O)[C@@H](C)NC(=O)[C@@H]2CCCN2C(=O)[C@H](Cc2ccccc2)NC(=O)[C@H](CC(C)C)NC(=O)[C@@H]2CCCN2C(=O)[C@H](CC(C)C)NC1=O has PAMPA -7.03 (log10 cm/s).